Antibody variant affinities, Ab-91 heavy chain, assay 2

Source: Engelhart et al. 2022 (doi:10.1038/s41597-022-01779-4), MIT Lincoln Laboratory and A-Alpha Bio; data file from the FLAb repository.

Antigen: PDVDLGDISGINAS, a 14-residue peptide of the SARS-CoV-2 spike HR2 region.

Parent: Ab-91, a human scFv built as VL, the linker GGGGSGGGGSGGGGS, VH. Only the CDRs of the heavy chain vary.
VL: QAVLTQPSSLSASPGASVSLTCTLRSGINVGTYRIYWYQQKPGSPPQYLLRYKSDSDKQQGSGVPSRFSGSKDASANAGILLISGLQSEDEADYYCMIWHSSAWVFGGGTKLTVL
VH: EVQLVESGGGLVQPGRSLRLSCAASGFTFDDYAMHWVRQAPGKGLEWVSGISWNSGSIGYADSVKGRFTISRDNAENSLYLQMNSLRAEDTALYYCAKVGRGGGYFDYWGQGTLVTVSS

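Variants in AAYL51 differ from the parent at up to three CDR positions; double and triple changes were sampled at random. In AlphaSeq, yeast of one mating type display the scFv and yeast of the other type display the target. Binding brings cells together so that they mate, and sequencing counts the barcode pairs among the diploids. Each replicate has its own calibration line, from reference interactions of the BCL2 family. The assay was run in three technical replicates.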

Positions count from residue 1 of the parent VH; G56W puts W in place of G.
Every variant below is changed at Y105 of the VH (sequential numbering).
The read-out is the apparent dissociation constant on a log10 scale (nM): the lower, the stronger.
The mean shown is taken over the replicates in which the pair was detected.
A pair that was not seen in that replicate is written "n.d."; this usually means weak binding, but a binder can also be missed.
Nonspecific signal, from three strains lacking the peptide, appeared in 21% of pairings of library AAYL51, centred on 4.54 (5% of these signals below 3.26); values are not corrected for it.

changes	replicates, log10 nM	mean log10 Kd (nM)
G56W/S57M/Y105R	2.52 / 2.08 / 1.68	2.09
H35T/S52Y/Y105V	4.31 / n.d. / n.d.	4.31
T28V/D31Y/Y105Q	2.25 / 2.23 / 1.94	2.14
N54M/Y105P/F106Q	n.d. / n.d. / n.d.	n.d.
F27R/W53H/Y105C	4.21 / n.d. / n.d.	4.21
D30S/G100H/Y105T	n.d. / n.d. / n.d.	n.d.
S57D/G100N/Y105Q	n.d. / 3.26 / n.d.	3.26
T28Q/H35K/Y105P	n.d. / n.d. / n.d.	n.d.
Y60K/G104A/Y105T	n.d. / 4.50 / n.d.	4.50
F27C/Y105I	n.d. / n.d. / n.d.	n.d.
I58L/V99K/Y105L	n.d. / n.d. / n.d.	n.d.
A33F/D62S/Y105Q	n.d. / n.d. / n.d.	n.d.
T28C/M34A/Y105A	2.06 / 2.63 / 2.79	2.49
F27D/Y105Q/F106V	n.d. / n.d. / n.d.	n.d.
S57V/S63L/Y105W	n.d. / 2.23 / n.d.	2.23
N54D/G56C/Y105S	1.02 / 1.08 / 0.60	0.90
V99R/G100M/Y105V	n.d. / n.d. / n.d.	n.d.
T28D/Y105Q	n.d. / n.d. / n.d.	n.d.
K65T/G102M/Y105T	n.d. / n.d. / n.d.	n.d.
H35E/S52P/Y105N	5.52 / n.d. / n.d.	5.52
Y32A/N54Y/Y105T	3.63 / n.d. / 4.01	3.82
D62F/Y105P/D107Y	n.d. / n.d. / n.d.	n.d.
G104H/Y105V/Y108F	n.d. / n.d. / n.d.	n.d.
G103F/Y105K	n.d. / n.d. / n.d.	n.d.
D30Q/S57K/Y105F	5.09 / 5.12 / 4.33	4.85
W53F/G100F/Y105C	4.80 / 4.31 / n.d.	4.56
T28Y/V64P/Y105V	n.d. / n.d. / 3.65	3.65
D30G/M34R/Y105S	n.d. / n.d. / n.d.	n.d.
A61R/Y105T/Y108S	n.d. / n.d. / n.d.	n.d.
G59L/Y105V	n.d. / n.d. / n.d.	n.d.
S52C/G104E/Y105E	n.d. / n.d. / n.d.	n.d.
D62I/Y105L	n.d. / 4.55 / 4.03	4.29
S52C/S63L/Y105Q	n.d. / 3.53 / n.d.	3.53
W53F/R101H/Y105P	3.93 / 4.32 / 5.69	4.65
F27V/G56L/Y105E	n.d. / n.d. / n.d.	n.d.
D31G/S57E/Y105E	n.d. / n.d. / n.d.	n.d.
A61W/Y105A/F106I	n.d. / n.d. / n.d.	n.d.
A61W/V64S/Y105V	n.d. / n.d. / n.d.	n.d.
M34I/R101G/Y105I	4.55 / 5.15 / n.d.	4.85

From the list, the first 2 with no signal in any replicate:

| changes | replicates, log10 nM | mean log10 Kd (nM) |
|---|---|---|
| N54M/Y105P/F106Q | n.d. / n.d. / n.d. | n.d. |
| D30S/G100H/Y105T | n.d. / n.d. / n.d. | n.d. |